From ChEMBL document CHEMBL4390642, “The in vivo antinociceptive and μ-opioid receptor activating effects of the combination of N-phenyl-2',4'-dimethyl-4,5'-bi-1,3-thiazol-2-amines and naloxone” (Eur J Med Chem, 2019)

Protein sequences, listed by entry. Tags and fused reporters are not part of them.
UniProt P35372, whole entry: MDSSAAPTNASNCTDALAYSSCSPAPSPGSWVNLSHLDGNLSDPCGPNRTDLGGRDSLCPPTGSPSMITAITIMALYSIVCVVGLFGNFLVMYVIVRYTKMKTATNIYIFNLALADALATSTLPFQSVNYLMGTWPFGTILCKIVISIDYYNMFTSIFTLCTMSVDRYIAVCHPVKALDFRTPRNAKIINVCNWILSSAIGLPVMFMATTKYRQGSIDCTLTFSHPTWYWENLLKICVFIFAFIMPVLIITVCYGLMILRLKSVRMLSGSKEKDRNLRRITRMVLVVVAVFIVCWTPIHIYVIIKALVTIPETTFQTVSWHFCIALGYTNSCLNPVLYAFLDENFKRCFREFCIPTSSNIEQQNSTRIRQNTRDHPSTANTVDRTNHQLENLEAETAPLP

Molecular target: Mu-type opioid receptor (Homo sapiens, UniProt P35372)
Test: Agonist activity at human mu opioid receptor expressed in CHOK1 cells coexpressing Galpha15 assessed as intracellular calcium AUC in presence of mu opioid receptor antagonist naloxone and incubated for 1 hr measured for 90 secs at 1.5 sec interval by FLIPR assay to morphine
Type: functional, cell-based
Parameters: concentration or dose not given beside the values

## CCc1ccccc1Nc1nc(-c2sc(C)nc2C)cs1
  Activity: 60.5%
